This note sets out measurements from PubChem BioAssay AID1040 (The Scripps Research Institute Molecular Screening Center, 2008).

Chains of the proteins cited; added tags and fusions are not shown.
UniProt P25929, whole entry: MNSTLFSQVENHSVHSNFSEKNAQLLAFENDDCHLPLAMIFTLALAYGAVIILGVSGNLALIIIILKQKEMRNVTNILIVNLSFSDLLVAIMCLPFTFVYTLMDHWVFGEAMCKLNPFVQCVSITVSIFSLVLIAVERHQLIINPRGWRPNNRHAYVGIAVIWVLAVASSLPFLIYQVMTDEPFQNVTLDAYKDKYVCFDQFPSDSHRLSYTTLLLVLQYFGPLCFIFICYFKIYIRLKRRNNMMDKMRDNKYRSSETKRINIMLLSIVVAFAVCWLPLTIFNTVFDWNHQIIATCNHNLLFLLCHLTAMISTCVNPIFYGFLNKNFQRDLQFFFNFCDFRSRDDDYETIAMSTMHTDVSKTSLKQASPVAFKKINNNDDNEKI

Only a part is listed here, and it is no random draw. Activity calls are given as the source filed them.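 The calls were made as follows: active = inhibition above the campaign mean inhibition of all tested compounds plus 3 SD (cut at about 20% in these data); inactive = the rest.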

For this experiment, the target named is Neuropeptide Y receptor type 1 (Homo sapiens) (UniProt P25929). The experiment can be described thus: blockers of human neuropeptide Y Y1 receptor – cell-based, primary screen (AID 1040).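 Also: 0% = DMSO wells given NPY plus isoproterenol and 100% = isoproterenol alone without NPY.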 The conditions noted are these: HEK293-CNG Y1 cells, membrane potential fluorescence; at 3.6 µM; active compounds read high; NPY at EC95, then isoproterenol.
What is called inhibition is the change of the read-out against control, counted positive when it falls. Regarding `CCN1CCC(Nc2cccc(F)c2)CC1`, the inhibition is inactive: 2.36%. Consider `CN(C)c1ccc(C(=O)NCC2(N3CCCCC3)CCCCC2)cc1`, for which the inhibition was inactive: 3.32%. Consider `CCOc1ncccc1C(=O)NCC1(N2CCOCC2)CCCCC1`, for which the inhibition was inactive: -1.92%. `CC(C)(C)OC(=O)N1CCC(Nc2ccccc2)CC1`: the inhibition is inactive: -5.14%. Next, `CCC(CO)(C(=O)OC1CN2CCC1CC2)c1ccccc1` (stereo not given): inactive: -1.91%; `COc1cc(OC)cc(C(=O)NCC2(N3CCOCC3)CCCCC2)c1`: inactive: 2.61%; `COc1ccc(C(=O)NCC2(N3CCOCC3)CCCCC2)cc1OC`: inactive: 1.37%. Regarding `N/C(=N\O)c1c(N)no[n+]1[O-]`, the inhibition is inactive: -1.62%. In the case of `O=C(OC1CN2CCC1CC2)C1c2ccccc2C=Cc2ccccc21` (stereo not given) it was inactive: 8.08%; in that of `N#Cc1ccc(C(=O)NCC2(N3CCCCC3)CCCCC2)cc1`, inactive: 3.24%.

Take `c1ccc(CN2CCC(Nc3ccccc3)CC2)cc1`: the inhibition was inactive: 2.7%. In the case of `O=C(NCC1(N2CCCCC2)CCCCC1)c1cccc([N+](=O)[O-])c1` it was inactive: 3.17%; in that of `N#CC1(Nc2ccccc2)CCN(CCc2ccccc2)CC1`, inactive: 4.68%; in that of `CN1CCN(CCOC(=O)C(O)(c2ccccc2)c2ccccc2)CC1`, inactive: -1.42%. Next, `COc1ccc(NC2CCN(C(=O)OC(C)(C)C)CC2)cc1`: inactive: -5.59%; `O=C(NCC1(N2CCOCC2)CCCCC1)c1cc(=O)[nH]c2ccccc12`: inactive: -1.02%. As for `COc1ccc(CN(CCCl)CCCl)cc1Cl`, the inhibition is inactive: -5.2%. As for `CN(C)c1cccc(C(=O)NCC2(N3CCCCC3)CCCCC2)c1`, the inhibition is inactive: 1.01%. `CC(C)c1ccc(NC2CCN(C(=O)OC(C)(C)C)CC2)cc1`: the inhibition was inactive: -3.47%. With `CN1CCC(Nc2cccc(F)c2)CC1`, the inhibition is inactive: 3.12%.

On to `COc1ccc(C(=O)NCC2(N3CCCCC3)CCCCC2)c(OC)c1OC`, for which the inhibition is inactive: -5.66%. Regarding `O=C(NCC1(N2CCOCC2)CCCCC1)c1cc2ccccc2o1`, the inhibition is inactive: 5.02%. Next, `CCOC(=O)N1CCC(Nc2ccc(OC)cc2)CC1`: inactive: 2.21%. Next, `O=C(OC1CN2CCC1CC2)C1c2ccccc2Oc2ccccc21` (stereo not given): inactive: 10.2%. Next, `COc1ccc(NC2CCN(CCc3ccccc3)CC2)c(OC)c1`: inactive: 4.59%.
